Values of other authors, collected in patent US20110117200A1, “RASAGILINE MESYLATE PARTICLES AND PROCESS FOR THE PREPARATION THEREOF” (ACTAVIS GROUP PTC EHF, priority 2008, published 2011).

Amino acid sequences for entries named in this document (tags omitted).
UniProt P27338, whole entry, species assumed: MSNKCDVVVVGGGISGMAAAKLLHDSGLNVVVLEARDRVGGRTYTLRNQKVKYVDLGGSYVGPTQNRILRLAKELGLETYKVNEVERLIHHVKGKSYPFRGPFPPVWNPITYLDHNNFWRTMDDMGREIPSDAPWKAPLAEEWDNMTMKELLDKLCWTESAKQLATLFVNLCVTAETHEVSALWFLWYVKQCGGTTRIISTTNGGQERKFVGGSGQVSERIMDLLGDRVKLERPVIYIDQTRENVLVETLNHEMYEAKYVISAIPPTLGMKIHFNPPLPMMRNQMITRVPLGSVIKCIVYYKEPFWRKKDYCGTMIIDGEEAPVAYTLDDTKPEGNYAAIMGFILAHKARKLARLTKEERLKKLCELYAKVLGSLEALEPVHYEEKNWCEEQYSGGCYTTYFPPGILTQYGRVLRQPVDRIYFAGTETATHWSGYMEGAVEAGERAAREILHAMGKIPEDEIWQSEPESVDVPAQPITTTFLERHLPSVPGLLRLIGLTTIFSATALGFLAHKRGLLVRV

Molecular target: B-form of the enzyme monoamine oxidase (MAO-B) (Homo sapiens, UniProt P27338)
Details: qualitative statement in the background; cited from earlier work

C#CCN[C@@H]1CCc2ccccc21.CS(=O)(=O)O [Rasagiline mesylate, rasagiline mesylate]
Inhibition of MAO-B: selective and potent irreversible inhibitor
